Experimental data published in PubChem BioAssay AID2521 (Sanford-Burnham Center for Chemical Genomics, 2010).
The list shows a part of the results, in another mix than the full data. Some salts and complexes are drawn in separate pieces, as the source files them; their charges need not balance. Activity calls are given as the source filed them.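 Rule for the calls: active = inhibition above about 40% at 20 µM (limit read from the data); inactive = the rest.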

The chains behind the UniProt entries cited, without tags or fusion partners.
UniProt P35414, whole entry: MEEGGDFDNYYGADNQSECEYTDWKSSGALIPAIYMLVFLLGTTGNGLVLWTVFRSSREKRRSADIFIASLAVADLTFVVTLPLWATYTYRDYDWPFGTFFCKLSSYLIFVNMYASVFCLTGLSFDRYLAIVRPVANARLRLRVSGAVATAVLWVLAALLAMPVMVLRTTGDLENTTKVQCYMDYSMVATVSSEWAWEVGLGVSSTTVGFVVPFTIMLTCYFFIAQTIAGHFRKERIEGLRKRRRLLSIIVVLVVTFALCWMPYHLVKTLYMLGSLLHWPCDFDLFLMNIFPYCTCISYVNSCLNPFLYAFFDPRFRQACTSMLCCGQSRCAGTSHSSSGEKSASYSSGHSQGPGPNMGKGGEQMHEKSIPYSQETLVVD

These molecules were tested against Apelin receptor (Homo sapiens) (UniProt P35414) (assay: antagonists of human apelin receptor APJ, primary screen, CHO-K1 cells, beta-arrestin complementation, luminescence (AID 2521;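 note: cells challenged with 10 nM apelin-13 agonist together with compound; plate controls were apelin-13 plus DMSO wells for no effect and DMSO wells lacking apelin-13 for full effect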)). Settings: at 20 µM, stronger effect = higher value.

Row | Structure (SMILES) | inhibition
1 | O=[N+]([O-])c1cc([N+](=O)[O-])c(Nc2cccnc2)c([N+](=O)[O-])c1 | inactive: -0.368%
2 | Cc1cccc(C)c1OP(C)(N)=O (configuration not stated) | inactive: -3.53%
3 | CC(C)(C)c1ccc(OP(C)(=O)Nc2ccc(SC(F)(F)F)cc2)cc1 (configuration not stated) | inactive: -18.1%
4 | CCOC(=O)c1ccc(NP(C)(=O)Oc2ccccc2)cc1 (configuration not stated) | inactive: 7.97%
5 | Cc1ccc(NP(C)(=O)Oc2ccccc2)c(C)c1 (configuration not stated) | inactive: 16.3%
6 | COc1ccccc1OP(C)(=O)Nc1ccc(C)cc1 (configuration not stated) | inactive: 5%
7 | COc1ccc(OP(C)(=O)Nc2cccc(F)c2)cc1 (configuration not stated) | inactive: 8.35%
8 | COc1ccccc1OP(C)(=O)Nc1cc(Cl)ccc1C (configuration not stated) | inactive: -1.66%
9 | Cc1cc(C)cc(OP(C)(N)=O)c1 (configuration not stated) | inactive: 9.31%
10 | CCN(CC)CCCOC(=O)C(O)(c1ccccc1)c1ccccc1 | inactive: -1.18%
11 | CP(=O)(Oc1ccccc1)OC(c1ccccc1)C(F)(F)F (configuration not stated) | inactive: -1.91%
12 | Cc1cccc(C)c1OP(C)(=O)Nc1ccc(SC(F)(F)F)cc1 (configuration not stated) | inactive: 0.803%
13 | CP(=O)(Nc1ccc(SC(F)(F)F)cc1)Oc1ccc(Cl)cc1 (configuration not stated) | inactive: -2.11%
14 | Cc1cc(C)cc(OP(C)(=O)Nc2ccc(SC(F)(F)F)cc2)c1 (configuration not stated) | inactive: -10.3%
15 | CCc1ccc(OP(C)(=O)N2CCN(c3ccc([N+](=O)[O-])cc3)CC2)cc1 (configuration not stated) | inactive: 11%
16 | CP(=O)(NC(=O)Nc1ccccc1)Oc1ccccc1 (configuration not stated) | inactive: -17%
17 | CCOP(C)(=S)SCC(=O)NC(C)C(=O)O (configuration not stated) | inactive: 9.48%
18 | CCOC(=O)c1ccc(NP(C)(=O)Oc2ccc(OC)cc2)cc1 (configuration not stated) | inactive: -5.55%
19 | O=[N+]([O-])c1cc([N+](=O)[O-])c(O)c([N+](=O)[O-])c1.c1ccc(Oc2ccncc2)cc1 | inactive: 21.7%
20 | CP(=O)(Nc1ccccn1)Oc1ccc(Cl)cc1 (configuration not stated) | inactive: -0.209%
21 | CP(=S)(Nn1cnnc1)Oc1ccccc1 (configuration not stated) | inactive: 13.5%
22 | COc1ccccc1OP(C)(=O)Nc1ccccc1 (configuration not stated) | inactive: -7.6%

Row | Structure (SMILES) | inhibition
23 | CP(=O)(Nc1ccccc1Br)Oc1ccccc1 (configuration not stated) | inactive: 8.28%
24 | CCOC(=O)C(CC)C1=NC(C)(C)Cc2ccccc21.O=[N+]([O-])c1cc([N+](=O)[O-])c(O)c([N+](=O)[O-])c1 (configuration not stated) | inactive: 10.9%
25 | O=[N+]([O-])c1cc([N+](=O)[O-])c(Nc2nnnn2CCO)c([N+](=O)[O-])c1 | inactive: 36.2%
26 | CC1=C2N=C(C=C3N=C(C(C)=C4[N-][C@@](C)([C@@H]5N=C1[C@](C)(CCC(=O)NC[C@@H](C)OP(=O)([O-])O[C@H]1[C@@H](O)[C@@H](n6cnc7cc(C)c(C)cc76)O[C@@H]1CO)[C@H]5CC(N)=O)[C@@](C)(CC(N)=O)[C@@H]4CCC(N)=O)[C@@](C)(CC(N)=O)[C@@H]3CCC(N)=O)C(C)(C)[C@@H]2CCC(N)=O.[C-]#N.[Co+3] | inactive: 38.2%
27 | COc1ccccc1OP(C)(=O)Nc1c(C)cccc1C (configuration not stated) | inactive: -13.6%
28 | CN1CCCCC1COC(=O)C1(O)c2ccccc2CCc2ccccc21 (configuration not stated) | inactive: 20.6%
29 | CP(=O)(Nc1ccc(SC(F)(F)F)cc1)Oc1ccccc1 (configuration not stated) | inactive: -9.31%
30 | CCCOc1ccc(NP(C)(=O)Oc2ccc(Cl)cc2)cc1 (configuration not stated) | inactive: 11%
31 | O=[N+]([O-])c1cc([N+](=O)[O-])c(-n2nnc3ccccc32)c([N+](=O)[O-])c1 | inactive: 1.32%
32 | O=[N+]([O-])c1cc([N+](=O)[O-])c(-c2cnn(-c3ccccc3)c2)c([N+](=O)[O-])c1 | inactive: -69.4%
33 | Cc1nc2ccc3ccccc3c2s1.O=[N+]([O-])c1cc([N+](=O)[O-])c(O)c([N+](=O)[O-])c1 | inactive: 18%
34 | COc1ccccc1OP(C)(=O)Nc1cccc(Br)c1 (configuration not stated) | inactive: -2.34%
35 | Cc1cc(C)cc(OP(C)(=O)Nc2ccc(C)cc2C)c1 (configuration not stated) | inactive: -12.1%
36 | CCOC(=O)c1ccc(NP(C)(=O)Oc2cc(C)cc(C)c2)cc1 (configuration not stated) | inactive: -1.87%
37 | CP(=O)(Nc1cccc(Br)c1)Oc1ccccc1 (configuration not stated) | inactive: 10.7%
38 | Cc1cc(C)cc(OP(C)(=O)Nc2ccccn2)c1 (configuration not stated) | inactive: 1.72%
39 | Cc1ccc(C)c(NP(C)(=O)Oc2ccccc2)c1 (configuration not stated) | inactive: 2.7%
40 | O=C(O)c1cccc(Nc2c([N+](=O)[O-])cc([N+](=O)[O-])cc2[N+](=O)[O-])c1 | inactive: 37.9%
41 | CC1=NCCc2c1[nH]c1ccccc21.O=[N+]([O-])c1cc([N+](=O)[O-])c(O)c([N+](=O)[O-])c1 | inactive: 19.6%
42 | COc1ccc(OP(C)(=O)Nc2ccc(SC(F)(F)F)cc2)cc1 (configuration not stated) | inactive: -8.36%
43 | CCOC(=O)c1ccc(NP(C)(=O)Oc2ccc(F)cc2)cc1 (configuration not stated) | inactive: -4.43%
44 | CCN(CC)CCCOC(=O)C(O)(c1ccccc1)C1CCCCC1 (configuration not stated) | inactive: 12.5%

Row | Structure (SMILES) | inhibition
45 | CCCCCOc1ccc(NP(C)(=O)Oc2ccc(Cl)cc2Cl)cc1 (configuration not stated) | inactive: 2.07%
46 | O=[N+]([O-])c1cc([N+](=O)[O-])c(OC2CCCCC2O)c([N+](=O)[O-])c1 (configuration not stated) | inactive: -6.9%
47 | CP(=O)(Nc1ccccc1)Oc1ccc(F)cc1 (configuration not stated) | inactive: -9.24%
48 | CC(C)c1ccc(OP(C)(=O)Nc2ccc(SC(F)(F)F)cc2)cc1 (configuration not stated) | inactive: -11.4%
49 | CP(=O)(Nc1ccccc1F)Oc1ccccc1 (configuration not stated) | inactive: 26.5%
50 | O=C(OCCN1CCN(CCOCc2ccccc2)CC1)C(O)(c1ccccc1)c1ccccc1 | inactive: -12.9%
51 | O=C(OC1CN2CCC1CC2)c1ccc([N+](=O)[O-])cc1 (configuration not stated) | inactive: -29.1%
52 | COc1ccc2c(c1O)-c1c(O)c(OC)cc3c1[C@H](C2)[N+](C)(C)CC3.O=[N+]([O-])c1cc([N+](=O)[O-])c([O-])c([N+](=O)[O-])c1[O-] | inactive: -83.5%
53 | CP(=O)(Nc1ccc(SC(F)(F)F)cc1)Oc1ccc(F)cc1 (configuration not stated) | inactive: 3.26%
54 | CCOP(C)(=S)SCC(=O)NC(C)(CC)C(=O)O (configuration not stated) | inactive: 9.94%
55 | CP(=O)(Nc1ccc2c(c1)OCCO2)Oc1ccccc1 (configuration not stated) | inactive: 15.4%
56 | Cc1ccccc1NP(C)(=O)Nc1ccccc1C | inactive: 8.67%
57 | COc1ccc(OP(C)(=O)Nc2cccc(Br)c2)cc1 (configuration not stated) | inactive: 0.374%
58 | COc1ccc(NP(C)(=O)Oc2ccccc2OC)cc1 (configuration not stated) | inactive: -4.29%
59 | CN(C)CCOC(=O)C(O)(c1ccccc1)C1CCCCC1 (configuration not stated) | inactive: 4.97%
60 | O=[N+]([O-])c1cc([N+](=O)[O-])c(NCC2CCS(=O)(=O)C2)c([N+](=O)[O-])c1 (configuration not stated) | inactive: -9.27%
61 | Nc1ccc2c(ccc3cccnc32)n1.O=[N+]([O-])c1cc([N+](=O)[O-])c(O)c([N+](=O)[O-])c1 | inactive: 24.5%
62 | CP(=O)(OC12CC3CC(CC(C3)C1)C2)OC12CC3CC(CC(C3)C1)C2 | inactive: 11.9%
63 | CCOC(=O)c1ccc(NP(C)(=O)Oc2ccc(Cl)cc2)cc1 (configuration not stated) | inactive: 6.5%
64 | COc1ccc(OP(C)(=O)Nc2ccc(Br)cc2)cc1 (configuration not stated) | inactive: 6.67%
65 | CCN(CC)CC(O)COC(=O)C(O)(c1ccccc1)C1CCCCC1 (configuration not stated) | inactive: 10%
66 | CCc1ccc(OP(C)(=O)Nc2cccnc2)cc1 (configuration not stated) | inactive: 4.86%

Row | Structure (SMILES) | inhibition
67 | CP(=O)(Oc1ccccc1)N1CCOC1=O (configuration not stated) | inactive: -0.0702%
68 | O=C(OCCCN1CCCC1)C(O)(c1ccccc1)C1CCCCC1 (configuration not stated) | inactive: 20.7%
69 | COc1ccccc1OP(C)(=O)Nc1c(C)n(C)n(-c2ccccc2)c1=O (configuration not stated) | inactive: 6.94%
70 | CP(=O)(Nc1ccc(Cl)cc1)Oc1ccc(F)cc1 (configuration not stated) | inactive: -12%
71 | CC(C)(C)c1ccc(OP(C)(=O)O)cc1 | inactive: -20.9%
72 | COc1ccccc1OP(C)(=O)Nc1ccccc1Br (configuration not stated) | inactive: 2.66%
73 | CN(C)C(=O)c1c([N+](=O)[O-])cc([N+](=O)[O-])cc1[N+](=O)[O-] | inactive: -33.9%
74 | COc1ccccc1OP(C)(=O)Nc1ccc(Br)cc1 (configuration not stated) | inactive: -0.587%
75 | CN(C)CCOC(=O)C(O)(c1ccccc1)C1CCCC1 (configuration not stated) | inactive: 2.47%
76 | COc1ccc(OP(C)(=O)Nc2ccccn2)cc1 (configuration not stated) | inactive: -19.2%
77 | O=[N+]([O-])c1cc([N+](=O)[O-])c(Nc2ccccn2)c([N+](=O)[O-])c1 | inactive: 5.77%
78 | Cc1c(NP(C)(=O)Oc2ccc(C(C)C)cc2)c(=O)n(-c2ccccc2)n1C (configuration not stated) | inactive: 2.72%
79 | CCc1ccc(OP(C)(=O)O)cc1 | inactive: -0.782%
80 | COc1ccccc1OP(C)(=O)Nc1ccc(C)cc1C (configuration not stated) | inactive: -4.57%
81 | CP(=O)(Nc1ccccn1)Oc1ccccc1 (configuration not stated) | inactive: 12.6%
82 | Cc1cc(C)cc(OP(C)(=O)Nc2cccc(C(F)(F)F)c2)c1 (configuration not stated) | inactive: -1.82%
83 | COc1ccc(OP(C)(=O)Nc2ccccc2Br)cc1 (configuration not stated) | inactive: -0.38%
84 | COc1ccccc1OP(C)(=O)Nc1ccc(C)c(C)c1 (configuration not stated) | inactive: 24%
85 | Cc1nc2ccc3ccccc3c2o1.O=[N+]([O-])c1cc([N+](=O)[O-])c(O)c([N+](=O)[O-])c1 | inactive: -0.701%
86 | CP(=O)(OCCOc1ccccc1)OCCOc1ccccc1 | inactive: 29.1%
87 | CP(=O)(Nc1ccc(Cl)cc1Cl)Oc1ccccc1 (configuration not stated) | inactive: 0.158%
